Values quoted from earlier work, collected in publication PMC9824695, “A Novel Multi-Target Mu/Delta Opioid Receptor Agonist, HAGD, Produced Potent Peripheral Antinociception with Limited Side Effects in Mice and Minimal Impact on Human Sperm Motility In Vitro” (Molecules, 2023).

Test system: opioid receptors
Conditions: cited from earlier work

## CN1CC[C@]23c4c5ccc(O)c4O[C@H]2[C@@H](O)C=C[C@H]3[C@H]1C5 [morphine]
  Agonist (receptors): MOR DOR KOR

## C=CCN1CC[C@]23c4c5ccc(O)c4O[C@H]2C(=O)CC[C@@]3(O)[C@H]1C5 [naloxone]
  Antagonist (receptors): MOR DOR KOR
